Results from patent US12115141B2, “Diagnosis of diabetes by detecting aggregated amylin in erythrocytes” (University of Kentucky Research Foundation, priority 2018, dated 2024).

Tested on: HIP rats

CC(=O)N1CCC(NC(=O)NC23CC4CC(CC(C4)C2)C3)CC1 [APAU]
arginase expression and arginase activation (HIP rat kidneys, FIG. 32): variable effects
amylin deposition in renal microvasculature (HIP-T vs HIP-UT, drinking water 10 weeks, FIG. 22E): lower
